This is an account of results in PubChem BioAssay AID455 (Sanford-Burnham Center for Chemical Genomics, 2006).

The entries are a selection whose mix differs from that of the whole data set. Calls of active or inactive are those of the source.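 Rule for the calls: active = a compound raising TNF-alpha-driven VCAM-1 surface staining, with its hit status upheld on visual or statistical review; inactive = the rest, including hits rejected on review.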

This assay in a line: boosters of cytokine-driven VCAM-1 levels – cell-based, plate reader, pooled HUVEC, TNFa stimulus (AID 455). The settings on record: HUVEC TNFa-induced VCAM-1 immunofluorescence.
For `Fc1ccccc1NC1CCN(Cc2ccccc2)CC1`, the compound was classed as inactive.
